# Reference: PubChem BioAssay AID2147 (National Center for Advancing Translational Sciences (NCATS), 2009)
# Sequences of proteins named here, by UniProt entry; tags and fusion partners are left off. Residues count along the entry.
# UniProt B2RXH2, 1-337 limits assumed: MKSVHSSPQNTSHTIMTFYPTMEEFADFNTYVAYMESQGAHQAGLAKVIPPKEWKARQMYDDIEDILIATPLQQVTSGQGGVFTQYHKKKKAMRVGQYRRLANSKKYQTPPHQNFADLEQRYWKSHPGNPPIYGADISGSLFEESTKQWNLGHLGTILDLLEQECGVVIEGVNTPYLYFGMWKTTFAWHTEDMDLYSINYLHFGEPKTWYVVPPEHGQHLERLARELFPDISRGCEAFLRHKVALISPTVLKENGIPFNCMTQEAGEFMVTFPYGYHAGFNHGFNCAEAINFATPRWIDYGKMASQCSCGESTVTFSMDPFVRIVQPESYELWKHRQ
# This is a selection; strong and weak results do not stand in their true shares. Inconclusive results are not listed. Calls of active or inactive are those of the source. Calls follow the shape of the dose curve; as a rule, active = well fitted inhibition curve with a large enough effect (not every such curve was filed as active); inconclusive = small, poorly fitted or top-dose-only effect, or another doubt; inactive = no such curve, though single readings can be large or run the other way.
# Biological target: Lysine-specific demethylase 4E (Homo sapiens) (UniProt B2RXH2)
# Assay: qHTS Assay for Inhibitors of Human Jumonji Domain Containing 2E (JMJD2E)
# Conditions: JMJD2E catalytic domain, FDH-coupled NADH fluorescence (FDH is formaldehyde dehydrogenase); at 57.1 µM (top of the series) unless noted
# 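Also: 0% = wells with enzyme and -100% = buffer wells without enzyme; nearly all actives have a fitted effect of over 50% in size.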
row,SMILES,"activity change, negative = inhibition"
1,Cc1cccc(C)c1OP(C)(=O)Nc1ccc(SC(F)(F)F)cc1 (configuration not stated),inactive: -14%
2,CP(=O)(Nc1ccc(SC(F)(F)F)cc1)Oc1ccc(Cl)cc1 (configuration not stated),inactive: -0.129%
3,CP(=O)(Oc1ccccc1)OC(c1ccccc1)C(F)(F)F (configuration not stated),inactive: -2.73%
4,CCc1ccc(OP(C)(=O)N2CCN(c3ccc([N+](=O)[O-])cc3)CC2)cc1 (configuration not stated),inactive: -20.7%
5,CP(=O)(NC(=O)Nc1ccccc1)Oc1ccccc1 (configuration not stated),inactive: -1.3%
6,Cc1cc(C)cc(OP(C)(=O)Nc2ccc(SC(F)(F)F)cc2)c1 (configuration not stated),inactive: -0.0845%
7,CCOC(=O)c1ccc(NP(C)(=O)Oc2ccc(OC)cc2)cc1 (configuration not stated),inactive: 18.3%
8,CP(=O)(Nc1ccccn1)Oc1ccc(Cl)cc1 (configuration not stated),inactive: 0.638%
9,CP(=S)(Nn1cnnc1)Oc1ccccc1 (configuration not stated),inactive: -2.22%
10,CP(=O)(Nc1ccccc1Br)Oc1ccccc1 (configuration not stated),inactive: 0.445%
11,COc1ccccc1OP(C)(=O)Nc1ccccc1 (configuration not stated),inactive: 4.23%
12,O=[N+]([O-])c1ccc2c(c1)C=Nc1ccccc1O2,inactive: 0.691%
13,CC(C)(C)c1ccc(OP(C)(=O)Nc2ccc(SC(F)(F)F)cc2)cc1 (configuration not stated),inactive: -3.79%
14,Cc1cccc(C)c1OP(C)(N)=O (configuration not stated),inactive: -3.58%
15,COc1ccccc1OP(C)(=O)Nc1ccc(C)cc1 (configuration not stated),inactive: 0.248%
16,Cc1ccc(NP(C)(=O)Oc2ccccc2)c(C)c1 (configuration not stated),inactive: 1.04%
17,CCOC(=O)c1ccc(NP(C)(=O)Oc2ccccc2)cc1 (configuration not stated),inactive: 8.22%
18,Cc1cc(C)cc(OP(C)(N)=O)c1 (configuration not stated),inactive: -6.94%
19,COc1ccccc1OP(C)(=O)Nc1cc(Cl)ccc1C (configuration not stated),inactive: -3.33%
20,COc1ccc(OP(C)(=O)Nc2cccc(F)c2)cc1 (configuration not stated),inactive: 6.52%
21,CCN(CC)CCCOC(=O)C(O)(c1ccccc1)c1ccccc1,inactive: 15.9%
22,COc1ccccc1OP(C)(=O)Nc1cccc(Br)c1 (configuration not stated),inactive: -1.19%
23,CCOC(=O)c1ccc(NP(C)(=O)Oc2cc(C)cc(C)c2)cc1 (configuration not stated),inactive: -2.92%
24,Cc1cc(C)cc(OP(C)(=O)Nc2ccc(C)cc2C)c1 (configuration not stated),inactive: 4.16%
25,Cc1ccc(C)c(NP(C)(=O)Oc2ccccc2)c1 (configuration not stated),inactive: 5.7%
26,CP(=O)(Nc1cccc(Br)c1)Oc1ccccc1 (configuration not stated),inactive: 7.72%

row,SMILES,"activity change, negative = inhibition"
1,Cc1cc(C)cc(OP(C)(=O)Nc2ccccn2)c1 (configuration not stated),inactive: 0.416%
2,O=[N+]([O-])c1cc([N+](=O)[O-])c(Nc2nnnn2CCO)c([N+](=O)[O-])c1,inactive: -25.8%
3,COc1ccccc1OP(C)(=O)Nc1c(C)cccc1C (configuration not stated),inactive: 5.75%
4,CN1CCCCC1COC(=O)C1(O)c2ccccc2CCc2ccccc21 (configuration not stated),inactive: 1.27%
5,CP(=O)(Nc1ccc(SC(F)(F)F)cc1)Oc1ccccc1 (configuration not stated),inactive: -9.41%
6,CCCOc1ccc(NP(C)(=O)Oc2ccc(Cl)cc2)cc1 (configuration not stated),inactive: 2.47%
7,O=[N+]([O-])c1cc([N+](=O)[O-])c(-n2nnc3ccccc32)c([N+](=O)[O-])c1,inactive: -5.96%
8,Cc1nc2ccc3ccccc3c2s1.O=[N+]([O-])c1cc([N+](=O)[O-])c(O)c([N+](=O)[O-])c1,inactive: -8.04%
9,CP(=O)(Nc1ccc(SC(F)(F)F)cc1)Oc1ccc(F)cc1 (configuration not stated),inactive: -7.96%
10,CCOP(C)(=S)SCC(=O)NC(C)(CC)C(=O)O (configuration not stated),inactive: 0.789%
11,CP(=O)(Nc1ccc2c(c1)OCCO2)Oc1ccccc1 (configuration not stated),inactive: -4.36%
12,CCN(CCCl)Cc1ccccc1C,inactive: -1.3%
13,Cc1ccccc1NP(C)(=O)Nc1ccccc1C,inactive: 11%
14,COc1ccc(OP(C)(=O)Nc2cccc(Br)c2)cc1 (configuration not stated),inactive: 2.82%
15,CN(C)CCOC(=O)C(O)(c1ccccc1)C1CCCCC1 (configuration not stated),inactive: 4.42%
16,COc1ccc(NP(C)(=O)Oc2ccccc2OC)cc1 (configuration not stated),inactive: 5.32%
17,O=[N+]([O-])c1ccc(OP2(=O)COCCO2)cc1 (configuration not stated),inactive: 4.91%
18,CCOC(=O)c1ccc(NP(C)(=O)Oc2ccc(F)cc2)cc1 (configuration not stated),inactive: 10.2%
19,COc1ccc(OP(C)(=O)Nc2ccc(SC(F)(F)F)cc2)cc1 (configuration not stated),inactive: -4.75%
20,CCN(CC)CCCOC(=O)C(O)(c1ccccc1)C1CCCCC1 (configuration not stated),inactive: 5.5%
21,CP(=O)(Nc1ccccc1)Oc1ccc(F)cc1 (configuration not stated),inactive: 1.1%
22,CCCCCOc1ccc(NP(C)(=O)Oc2ccc(Cl)cc2Cl)cc1 (configuration not stated),inactive: -26.7%
23,CP(=O)(Nc1ccccc1F)Oc1ccccc1 (configuration not stated),inactive: 4.35%
24,CC(C)c1ccc(OP(C)(=O)Nc2ccc(SC(F)(F)F)cc2)cc1 (configuration not stated),inactive: -7.33%
25,O=C(OCCN1CCN(CCOCc2ccccc2)CC1)C(O)(c1ccccc1)c1ccccc1,inactive: -7.18%
26,COc1ccccc1OP(C)(=O)Nc1ccc(Br)cc1 (configuration not stated),inactive: -0.0831%

row,SMILES,"activity change, negative = inhibition"
1,COc1ccc(OP(C)(=O)Nc2ccccn2)cc1 (configuration not stated),inactive: 4.88%
2,CN(C)CCOC(=O)C(O)(c1ccccc1)C1CCCC1 (configuration not stated),inactive: 5.59%
3,Cc1c(NP(C)(=O)Oc2ccc(C(C)C)cc2)c(=O)n(-c2ccccc2)n1C (configuration not stated),inactive: -1.26%
4,CP(=O)(Nc1ccccn1)Oc1ccccc1 (configuration not stated),inactive: -7.43%
5,COc1ccccc1OP(C)(=O)Nc1ccc(C)cc1C (configuration not stated),inactive: 1.71%
6,CCc1ccc(OP(C)(=O)O)cc1,inactive: -2.83%
7,Cc1cc(C)cc(OP(C)(=O)Nc2cccc(C(F)(F)F)c2)c1 (configuration not stated),inactive: 0.228%
8,COc1ccccc1OP(C)(=O)Nc1ccc(C)c(C)c1 (configuration not stated),inactive: 5.51%
9,COc1ccc(OP(C)(=O)Nc2ccccc2Br)cc1 (configuration not stated),inactive: 2.79%
10,CP(=O)(OCCOc1ccccc1)OCCOc1ccccc1,inactive: 8.06%
11,CP(=O)(Nc1ccc(Cl)cc1Cl)Oc1ccccc1 (configuration not stated),inactive: 3.33%
12,CCOC(=O)c1ccc(NP(C)(=O)Oc2ccc(Cl)cc2)cc1 (configuration not stated),inactive: 14.5%
13,CP(=O)(OC12CC3CC(CC(C3)C1)C2)OC12CC3CC(CC(C3)C1)C2,inactive: 1.8%
14,C/C1=C2N=C(/C=C3N=C(/C(C)=C4\[N-][C@@](C)([C@H]5N=C1[C@@](C)(CCC(=O)NC[C@H](C)OP(=O)([O-])O[C@@H]1[C@H](O)[C@H](n6cnc7cc(C)c(C)cc76)O[C@@H]1CO)[C@@H]5CC(N)=O)[C@](C)(CC(N)=O)[C@H]4CCC(N)=O)[C@@](C)(CC(N)=O)[C@@H]\3CCC(N)=O)C(C)(C)[C@@H]/2CCC(N)=O.[C-]#N.[Co+3],inactive: -8.82% [at 25.5 µM]
15,CCN(CC)CC(O)COC(=O)C(O)(c1ccccc1)C1CCCCC1 (configuration not stated),inactive: 1.73%
16,COc1ccc(OP(C)(=O)Nc2ccc(Br)cc2)cc1 (configuration not stated),inactive: 3.01%
17,COc1ccccc1OP(C)(=O)Nc1c(C)n(C)n(-c2ccccc2)c1=O (configuration not stated),inactive: 0.759%
18,OCCSCCO,inactive: 12.6%
19,O=C(OCCCN1CCCC1)C(O)(c1ccccc1)C1CCCCC1 (configuration not stated),inactive: -0.0302%
20,CP(=O)(Oc1ccccc1)N1CCOC1=O (configuration not stated),inactive: 0.718%
21,CCc1ccc(OP(C)(=O)Nc2cccnc2)cc1 (configuration not stated),inactive: -3.04%
22,CC(C)(C)c1ccc(OP(C)(=O)O)cc1,inactive: 3.65%
23,COc1ccccc1OP(C)(=O)Nc1ccccc1Br (configuration not stated),inactive: 7.56%
24,CP(=O)(Nc1ccc(Cl)cc1)Oc1ccc(F)cc1 (configuration not stated),inactive: -0.323%
25,CN(C)C(=O)c1c([N+](=O)[O-])cc([N+](=O)[O-])cc1[N+](=O)[O-],inactive: -6.73%
